# PubChem BioAssay AID1508612
# Assay: passive permeability, PAMPA, ADME assay (AID 1508612)
# Conditions: pH 7.4, 30.0 min, 50.0 µM
structure (smiles),measurement,value
CC(=O)NC(SC(=S)N(C)C)C(Cl)(Cl)Cl (stereo unspecified),Papp,63.5 ×10⁻⁶ cm/s
